Target: T1, full-length B-Catenin (Uniprot ID P35222) (Homo sapiens, UniProt P35222)
T1 construct: 10 nM full-length B-Catenin (Uniprot ID P35222)
Format: binding
Settings: competition fluorescence polarization; read-out: beta-Catenin FP IC50

Amino acid sequences for entries named in this document (tags omitted).
UniProt P35222, whole entry: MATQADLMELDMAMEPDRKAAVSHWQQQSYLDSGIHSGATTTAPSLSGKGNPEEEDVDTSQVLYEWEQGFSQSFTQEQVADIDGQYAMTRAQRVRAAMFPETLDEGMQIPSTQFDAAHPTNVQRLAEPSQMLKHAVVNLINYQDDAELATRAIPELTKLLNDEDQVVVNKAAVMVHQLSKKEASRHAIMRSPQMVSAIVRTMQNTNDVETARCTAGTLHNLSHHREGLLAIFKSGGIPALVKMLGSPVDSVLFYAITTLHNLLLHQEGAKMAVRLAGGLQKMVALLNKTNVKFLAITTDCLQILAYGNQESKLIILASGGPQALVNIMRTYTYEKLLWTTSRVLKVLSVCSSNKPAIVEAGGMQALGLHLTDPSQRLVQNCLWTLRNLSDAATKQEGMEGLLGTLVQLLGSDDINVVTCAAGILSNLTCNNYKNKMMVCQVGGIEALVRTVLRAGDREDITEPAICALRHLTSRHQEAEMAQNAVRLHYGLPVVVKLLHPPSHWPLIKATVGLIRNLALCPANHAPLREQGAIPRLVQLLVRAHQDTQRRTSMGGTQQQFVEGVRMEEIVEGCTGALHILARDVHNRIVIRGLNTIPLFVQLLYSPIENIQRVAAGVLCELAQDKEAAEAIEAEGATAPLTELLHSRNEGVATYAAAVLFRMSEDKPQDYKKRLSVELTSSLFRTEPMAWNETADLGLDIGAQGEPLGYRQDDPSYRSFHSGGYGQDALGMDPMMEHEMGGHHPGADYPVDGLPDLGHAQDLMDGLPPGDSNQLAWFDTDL

| Substance | IC50 [nM] |
| --- | --- |
| Ac-PL3-Asp-Npg-B5-Asp-3COOHF-Aib-Ala-Phe-TriAzLys*3-[2Me4VinPhAc2]PyrSa-3Thi-BztA-sAla*3-Ala-NH2 [I-1449] | 50 to 200 |
| Ac-PL3-Asp-Npg-B5-Asp-3COOHF-Aib-Ala-Phe-TriAzLys*3-[3OHBz]PyrSa-3Thi-BztA-sAla*3-Ala-NH2 [I-1438] | < 50 |
| Ac-PL3-Asp-Npg-B5-Asp-3COOHF-Aib-Ala-Phe-TriAzLys*3-[3SBz]PyrSa-3Thi-BztA-sAla*3-Ala-NH2 [I-1450] | 50 to 200 |
| Ac-PL3-Asp-Npg-B5-Asp-3COOHF-Aib-Ala-Phe-TriAzLys*3-[4VinylBzt]PyrSa-3Thi-BztA-sAla*3-Ala-NH2 [I-1437] | 50 to 200 |
| Ac-PL3-Asp-Npg-B5-Asp-3COOHF-Aib-Ala-Phe-TriAzLys*3-[CO][Ala]PyrSa-3Thi-BztA-sAla*3-Ala-NH2 [I-1126] | < 50 |
| Ac-PL3-Asp-Npg-B5-Asp-3COOHF-Aib-Ala-Phe-TriAzLys*3-[CO][Nip]PyrSa-3Thi-BztA-sAla*3-Ala-NH2 [I-1444] | 50 to 200 |
| Ac-PL3-Asp-Npg-B5-Asp-3COOHF-Aib-Ala-Phe-TriAzLys*3-[CO][Pro]PyrSa-3Thi-BztA-sAla*3-Ala-NH2 [I-1448] | 50 to 200 |
| Ac-PL3-Asp-Npg-B5-Asp-3COOHF-Aib-Ala-Phe-TriAzLys*3-[CO][Sar]PyrSa-3Thi-BztA-sAla*3-Ala-NH2 [I-1443] | 50 to 200 |
| Ac-PL3-Asp-Npg-B5-Asp-3COOHF-Aib-Ala-Phe-TriAzLys*3-[CO][Val]PyrSa-3Thi-BztA-sAla*3-Ala-NH2 [I-1440] | < 50 |
| Ac-PL3-Asp-Npg-B5-Asp-3COOHF-Aib-Ala-Phe-TriAzLys*3-[CO][dAla]PyrSa-3Thi-BztA-sAla*3-Ala-NH2 [I-1127] | < 50 |
| Ac-PL3-Asp-Npg-B5-Asp-3COOHF-Aib-Ala-Phe-TriAzLys*3-[CO][dNip]PyrSa-3Thi-BztA-sAla*3-Ala-NH2 [I-1445] | 50 to 200 |
| Ac-PL3-Asp-Npg-B5-Asp-3COOHF-Aib-Ala-Phe-TriAzLys*3-[CO][dVal]PyrSa-3Thi-BztA-sAla*3-Ala-NH2 [I-1442] | < 50 |
| Ac-PL3-Asp-Npg-B5-Asp-3COOHF-Aib-Ala-Phe-TriAzLys*3-[RMeIso2]PyrSc704-3Thi-BztA-sAla*3-Ala-NH2 [I-1123] | 50 to 200 |
| Ac-PL3-Asp-Npg-B5-Asp-3COOHF-Aib-Ala-Phe-TriAzLys*3-[SMeIso2]PyrSc704-3Thi-BztA-sAla*3-Ala-NH2 [I-1122] | 50 to 200 |
| Ac-PL3-Asp-Npg-B5-Asp-3COOHF-Aib-Ala-Phe-[2_6-naph]hCys-PyrS2-3Thi-BztA-Cys-Ala-NH2 [I-1270] | 200 to 750 |
| Ac-PL3-Asp-Npg-B5-Asp-3COOHF-Aib-Ala-Phe-[3_3-biPh]hCys-PyrS2-3Thi-BztA-Cys-Ala-NH2 [I-1269] | 50 to 200 |
| Ac-PL3-Asp-Npg-B5-Asp-3COOHF-Aib-Ala-Phe-[13Ac]hCys-PyrS2-3Thi-BztA-Cys-Ala-NH2 [I-1283] | < 50 |
| Ac-PL3-Asp-Npg-B5-Asp-3COOHF-Aib-Ala-Phe-[13Ac]hCys-PyrS2-3Thi-BztA-aMeC-Ala-NH2 [I-1430] | 50 to 200 |
| Ac-PL3-Asp-Npg-B5-Asp-3COOHF-Aib-Ala-Phe-[33Oxe]Cys-PyrS2-3Thi-BztA-aMeC-Ala-NH2 [I-1391] | 50 to 200 |
| Ac-PL3-Asp-Npg-B5-Asp-3COOHF-Aib-Ala-Phe-[33Oxe]hCys-PyrS2-3Thi-BztA-Cys-Ala-NH2 [I-1276] | < 50 |
| Ac-PL3-Asp-Npg-B5-Asp-3COOHF-Aib-Ala-Phe-[C3]Cys-PyrS2-3Thi-BztA-Cys-Ser-NH2 [I-1522] | < 50 |

| Substance | IC50 [nM] |
| --- | --- |
| Ac-PL3-Asp-Npg-B5-Asp-3COOHF-Aib-Ala-Phe-[C3]Cys-PyrS2-3Thi-BztA-Pen-Ala-NH2 [I-1459] | 50 to 200 |
| Ac-PL3-Asp-Npg-B5-Asp-3COOHF-Aib-Ala-Phe-[C3]Cys-PyrS2-3Thi-BztA-aMeC-Ala-NH2 [I-1388] | 50 to 200 |
| Ac-PL3-Asp-Npg-B5-Asp-3COOHF-Aib-Ala-Phe-[C3]hCys-PyrS2-3Thi-BztA-Pen-Ala-NH2 [I-1471] | 50 to 200 |
| Ac-PL3-Asp-Npg-B5-Asp-3COOHF-Aib-Ala-Phe-[C3]hCys-PyrS2-3Thi-BztA-aMeC-Ala-NH2 [I-1427] | 50 to 200 |
| Ac-PL3-Asp-Npg-B5-Asp-3COOHF-Aib-Ala-Phe-[IsoE]Cys-PyrS2-3Thi-BztA-aMeC-Ala-NH2 [I-1389] | 50 to 200 |
| Ac-PL3-Asp-Npg-B5-Asp-3COOHF-Aib-Ala-Phe-[IsoE]Cys-PyrS2-3Thi-BztA-hCys-Ala-NH2 [I-1462] | 50 to 200 |
| Ac-PL3-Asp-Npg-B5-Asp-3COOHF-Aib-Ala-Phe-[IsoE]hCys-PyrS2-3Thi-BztA-aMeC-Ala-NH2 [I-1429] | < 50 |
| Ac-PL3-Asp-Npg-B5-Asp-3COOHF-Aib-Ala-Phe-[IsoE]hCysOx-PyrS2-3Thi-BztA-aMeC-Ala-NH2 [I-1460] | < 50 |
| Ac-PL3-Asp-Npg-B5-Asp-3COOHF-Aib-Ala-Phe-[Mpyr]Cys-PyrS2-3Thi-BztA-Cys-Ser-NH2 [I-1520] | < 50 |
| Ac-PL3-Asp-Npg-B5-Asp-3COOHF-Aib-Ala-Phe-[Mxyl]Cys-PyrS2-3Thi-BztA-Cys-Ser-NH2 [I-1519] | < 50 |
| Ac-PL3-Asp-Npg-B5-Asp-3COOHF-Aib-Ala-Phe-[Red]Cys-PyrS2-3Thi-BztA-Cys-Ser-NH2 [I-1521] | < 50 |
| Ac-PL3-Asp-Npg-B5-Asp-3COOHF-Aib-Ala-Phe-[Red]hCys-PyrS2-3Thi-BztA-aMeC-Ala-NH2 [I-1428] | 200 to 750 |
| Ac-PL3-Asp-Npg-B5-Asp-3COOHF-Aib-Ala-Phe-[m5Meb]Cys-PyrS2-3Thi-BztA-aMeC-Ala-NH2 [I-1390] | 50 to 200 |
| Ac-PL3-Asp-Npg-B5-Asp-3COOHF-Aib-Ala-Phe-[m5Meb]hCys-PyrS2-3Thi-BztA-aMeC-Ala-NH2 [I-1426] | 50 to 200 |
| Ac-PL3-Asp-Npg-B5-Asp-3COOHF-Aib-Ala-Phe-[m5Pyr]Cys-PyrS2-3Thi-BztA-Cys-Ala-NH2 [I-1451] | < 50 |
| Ac-PL3-Asp-Npg-B5-Asp-3COOHF-Aib-Ala-Phe-[m5Pyr]Cys-PyrS2-3Thi-BztA-Pen-Ala-NH2 [I-1455] | < 50 |
| Ac-PL3-Asp-Npg-B5-Asp-3COOHF-Aib-Ala-Phe-[m5Pyr]hCys-PyrS2-3Thi-BztA-Pen-Ala-NH2 [I-1470] | 50 to 200 |
| Ac-PL3-Asp-Npg-B5-Asp-3COOHF-Aib-Ala-Phe-[m50Meb]Cys-PyrS2-3Thi-BztA-Cys-Ala-NH2 [I-1453] | < 50 |
| Ac-PL3-Asp-Npg-B5-Asp-3COOHF-Aib-Ala-Phe-[mPyr]Cys-PyrS2-3Thi-BztA-aMeC-Ala-NH2 [I-1387] | 50 to 200 |
| Ac-PL3-Asp-Npg-B5-Asp-3COOHF-Aib-Ala-Phe-[mPyr]Cys-PyrS2-3Thi-BztA-hCys-Ala-NH2 [I-1461] | < 50 |
| Ac-PL3-Asp-Npg-B5-Asp-3COOHF-Aib-Ala-Phe-[mPyr]hCys-PyrS2-3Thi-BztA-Pen-Ala-NH2 [I-1469] | < 50 |

| Substance | IC50 [nM] |
| --- | --- |
| Ac-PL3-Asp-Npg-B5-Asp-3COOHF-Aib-Ala-Phe-[mPyr]hCys-PyrS2-3Thi-BztA-aMeC-Ala-NH2 [I-1425] | 50 to 200 |
| Ac-PL3-Asp-Npg-B5-Asp-3COOHF-Aib-Ala-Phe-[mXyl]Cys-PyrS2-3Thi-BztA-aMeC-Ala-NH2 [I-1386] | 50 to 200 |
| Ac-PL3-Asp-Npg-B5-Asp-3COOHF-Aib-Ala-Phe-[mXyl]hCys-PyrS2-3Thi-BztA-hCys-Ala-NH2 [I-759] | 50 to 200 |
| Ac-PL3-Asp-Npg-B5-Asp-3COOHF-Aib-Ala-Phe-[pXyl]Cys-PyrS2-3Thi-BztA-hCys-Ala-NH2 [I-758] | 50 to 200 |
| Ac-PL3-Asp-Npg-B5-Asp-3COOHF-Aib-Ala-Phe-[pXyl]hCys-PyrS2-3Thi-BztA-Cys-Ala-NH2 [I-757] | < 50 |
| Ac-PL3-Asp-Npg-B5-Asp-3COOHF-Aib-Ala-Phe-[pXyl]hCys-PyrS2-3Thi-BztA-hCys-Ala-NH2 [I-760] | 50 to 200 |
| Ac-PL3-Asp-Npg-B5-Asp-3COOHF-Aib-Ala-Phe-dDab*3-PyrS2-3Thi-BztA-GlnR*3-Leu-Ser-NH2 [I-791] | < 50 |
| Ac-PL3-Asp-Npg-B5-Asp-3COOHF-Aib-Ala-Phe-dOrn*3-PyrS2-3Thi-BztA-AsnR*3-Leu-Ser-NH2 [I-797] | < 50 |
| Ac-PL3-Asp-Npg-B5-Asp-3COOHF-Aib-Ala-RbMeXylA-Lys*3-PyrS2-3Thi-BztA-GlnR*3-Ala-NH2 [I-601] | > 1000 |
| Ac-PL3-Asp-Npg-B5-Asp-3COOHF-Aib-Ala-RbMeXylDA-Lys*3-PyrS2-3Thi-BztA-GlnR*3-Ala-NH2 [I-603] | > 1000 |
| Ac-PL3-Asp-Npg-B5-Asp-3COOHF-Aib-Ala-RbiPrDF-Lys*3-PyrS2-3Thi-BztA-GlnR*3-Ala-NH2 [I-599] | > 1000 |
| Ac-PL3-Asp-Npg-B5-Asp-3COOHF-Aib-Ala-RbiPrF-Lys*3-PyrS2-3Thi-BztA-GlnR*3-Ala-NH2 [I-595] | > 1000 |
| Ac-PL3-Asp-Npg-B5-Asp-3COOHF-Aib-Ala-SbiPrF-Lys*3-PyrS2-3Thi-BztA-GlnR*3-Ala-NH2 [I-597] | > 1000 |
| Ac-PL3-Asp-Npg-B5-Asp-3COOHF-Aib-Cba-Phe-Lys*3-PyrS2-3Thi-BztA-GlnR*3-Ala-NH2 [I-532] | < 50 |
| Ac-PL3-Asp-Npg-B5-Asp-3COOHF-Aib-nLeu-Phe-Lys*3-PyrS2-3Thi-BztA-GlnR*3-Ala-NH2 [I-528] | < 50 |
| Ac-PL3-Asp-Npg-B5-Asp-3COOHF-Ala-Ala-Phe-Lys*3-PyrS2-2F3MeF-34ClF-GlnR*3-Leu-NH2 [I-828] | 50 to 200 |
| Ac-PL3-Asp-Npg-B5-Asp-3COOHF-Ala-Ala-Phe-Lys*3-PyrS2-2F3MeF-34ClF-GlnR*3-Leu-Ser-NH2 [I-829] | 50 to 200 |
| Ac-PL3-Asp-Npg-B5-Asp-3COOHF-Ala-Ala-Phe-Lys*3-PyrS2-2F3MeF-34ClF-GlnR*3-Val-NH2 [I-824] | < 50 |
| Ac-PL3-Asp-Npg-B5-Asp-3COOHF-Ala-Ala-Phe-Lys*3-PyrS2-2F3MeF-BztA-GlnR*3-Leu-NH2 [I-105] | < 50 |
| Ac-PL3-Asp-Npg-B5-Asp-3COOHF-Ala-Ala-Phe-Lys*3-PyrS2-Phe-BztA-GlnR*3-Ala-NH2 [I-1244] | < 50 |

Same assay, conditions: read-out: beta-catenin TCF4 competition FP assay IC50

| Substance | IC50 [nM] |
| --- | --- |
| Ac-PL3-Asp-Npg-B5-Asp-3COOHF-Aib-Ala-Phe-[m5Pyr]Cys-PyrS2-3Thi-BztA-Cys-Ala-NH2 [I-1451] | 14 |
| Ac-PL3-Asp-Npg-B5-Asp-3COOHF-Aib-Ala-Phe-[m50Meb]Cys-PyrS2-3Thi-BztA-Cys-Ala-NH2 [I-1453] | 35 |

Source: patent publication US20240360179A1, “STAPLED PEPTIDES AND METHODS THEREOF” (FOG PHARMACEUTICALS, INC., priority 2021, published 2024)
